Measured values reported in BindingDB's records for doi:10.1016/0006-2952(86)90769-0 (Wyeth Laboratories, 1986).

Chains of the proteins cited; added tags and fusions are not shown.
UniProt P23977, whole entry: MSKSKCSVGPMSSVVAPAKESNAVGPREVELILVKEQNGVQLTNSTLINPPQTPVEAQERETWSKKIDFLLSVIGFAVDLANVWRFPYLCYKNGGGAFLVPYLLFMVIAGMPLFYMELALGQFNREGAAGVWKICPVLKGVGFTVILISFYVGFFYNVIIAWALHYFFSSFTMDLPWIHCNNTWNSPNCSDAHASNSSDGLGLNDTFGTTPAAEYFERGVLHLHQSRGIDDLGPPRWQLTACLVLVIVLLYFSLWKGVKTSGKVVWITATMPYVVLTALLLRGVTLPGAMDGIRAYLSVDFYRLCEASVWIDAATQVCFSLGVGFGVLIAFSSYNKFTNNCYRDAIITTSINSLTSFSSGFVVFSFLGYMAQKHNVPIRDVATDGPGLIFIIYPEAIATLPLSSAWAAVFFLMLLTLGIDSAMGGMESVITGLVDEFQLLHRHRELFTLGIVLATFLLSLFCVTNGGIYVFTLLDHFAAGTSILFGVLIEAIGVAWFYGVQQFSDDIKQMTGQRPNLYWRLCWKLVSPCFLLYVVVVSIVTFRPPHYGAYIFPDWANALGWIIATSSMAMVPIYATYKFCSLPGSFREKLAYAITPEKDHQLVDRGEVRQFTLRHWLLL

What was measured:
[1] = molecular target: Norepinephrine transporter (Rattus norvegicus, UniProt Q9JIA2)
[2] = molecular target: Sodium-dependent dopamine transporter (Rattus norvegicus, UniProt P23977)

## COc1ccc(C(CN(C)C)C2(O)CCCCC2)cc1 (configuration not stated) [NSC_62923]
[1]
  Ki: 0.64 nM and 0.76 nM and 3.14 nM
[2]
  Ki: 2.8 nM

Values joined by “and” are separate entries in the source; they are usually repeats but may differ in a detail not shown here. Identical values can stand only once.
